{"source": "patent US10117433B2", "about": "(priority 2011, dated 2018)", "system": "M. brassicae larvae", "assay": "Droplet feeding assays, M. brassicae (Example 7)", "assay_type": "in vivo, Mamestra brassicae", "conditions": "fifth stadium; total of 160 μg fusion protein over four days or equivalent dose of Hv1a"}
{"substance": "ω-ACTX-Hv1a", "values": [{"measurement": "survival to pupation", "value": "all survived to pupation"}]}
